Measured values taken from PubChem BioAssay (EPA / NIEHS).
The entries are a selection whose mix differs from that of the whole data set. Activity calls are given as the source filed them. The calls were made as follows: active = hit-call score of the fitted dose curve at least 0.9, where 1 is the maximum; inactive = score below 0.9.

By UniProt entry, the sequences of proteins in these tests, tags left out. Where a name states a change or a piece, a line headed by the entry shows the natural chain unless it says otherwise.
UniProt P35869: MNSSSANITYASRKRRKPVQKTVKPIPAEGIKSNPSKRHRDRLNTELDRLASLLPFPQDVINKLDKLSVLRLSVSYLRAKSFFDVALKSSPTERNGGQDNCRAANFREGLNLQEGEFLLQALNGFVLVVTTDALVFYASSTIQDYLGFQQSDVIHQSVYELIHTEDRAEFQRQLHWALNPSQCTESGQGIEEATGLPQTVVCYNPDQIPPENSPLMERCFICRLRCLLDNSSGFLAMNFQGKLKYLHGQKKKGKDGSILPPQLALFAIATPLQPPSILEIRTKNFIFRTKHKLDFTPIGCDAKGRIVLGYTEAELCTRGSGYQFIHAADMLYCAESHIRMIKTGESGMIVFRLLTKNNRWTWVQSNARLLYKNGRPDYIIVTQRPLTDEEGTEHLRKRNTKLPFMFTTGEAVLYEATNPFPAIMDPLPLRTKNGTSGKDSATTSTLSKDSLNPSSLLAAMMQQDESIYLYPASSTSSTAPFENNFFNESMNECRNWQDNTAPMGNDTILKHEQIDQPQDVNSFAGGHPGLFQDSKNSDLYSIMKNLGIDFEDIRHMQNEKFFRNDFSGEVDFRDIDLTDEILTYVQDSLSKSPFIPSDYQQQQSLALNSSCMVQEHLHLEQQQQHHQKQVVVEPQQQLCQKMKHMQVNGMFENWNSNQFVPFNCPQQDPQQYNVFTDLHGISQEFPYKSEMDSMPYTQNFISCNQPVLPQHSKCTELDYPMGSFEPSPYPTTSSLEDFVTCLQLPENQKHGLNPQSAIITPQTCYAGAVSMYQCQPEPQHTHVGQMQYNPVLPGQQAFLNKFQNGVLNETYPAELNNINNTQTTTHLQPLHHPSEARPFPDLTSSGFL

Target: Aryl hydrocarbon receptor (Homo sapiens) (UniProt P35869)
Test: ATG_Ahr_CIS: Attagene CIS-FACTORIAL HepG2 Assay for human Aryl Hydrocarbon Receptor (Ahr) (AID 2282930)
Conditions: HepG2 AhR cis-factorial reporter transcription; actives raise or lower the signal
Procedure: ATG_CIS is a cell-based, multiplexed-readout assay that uses HepG2, a human liver cell line, with measurements taken at 24 hours after chemical dosing in a 24-well plate.ATG_Ahr_CIS is one of 52 assay component(s) measured or calculated from the ATG_CIS assay. It is designed to make measurements of mRNA induction, a form of inducible reporter, as detected with fluorescence intensity signals by Reverse transcription polymerase chain reaction (RT-PCR) and Capillary electrophoresis technology.Data from the assay component ATG_Ahr_CIS was analyzed into 1 assay endpoint. This assay endpoint, ATG_Ahr_CIS, was analyzed with bidirectional fitting relative to DMSO as the negative control and baseline of activity. Using a type of inducible reporter, measures of mRNA for gain or loss-of-signal activity can be used to understand the reporter gene at the transcription factor-level as they relate to the gene AHR. Furthermore, this assay endpoint can be referred to as a primary readout, because this assay has produced multiple assay endpoints where this one serves a reporter gene function. To generalize the intended target to other relatable targets, this assay endpoint is annotated to the dna binding intended target family, where the subfamily is basic helix-loop-helix protein.
Human liver HepG2 cells are transiently transfected with multiple reporter transcription units (MRTUs) in 6-well plates using FuGene 6 reagent (Roche; 3 ml FuGene/1 mg DNA). The MRTU constructs are regulated by a cis-regulating element (promoter). […] A major difference between the CIS and TRANS system is that in CIS activities of endogenous TFs are measured, whereas the TRANS assay evaluates changes in activities of exogenous, chimeric NR-Gal4 proteins. […] At the end of 24 hour incubation, total RNA was isolated using TriZol reagent (Invitrogen). The isolated RNA is then reverse-transcribed using oligo(dT) primer and Mo-MLV reverse transcriptase (Invitrogen) with DNAse I (Ambion) treatment for 30 min. The one-tenth of the produced cDNA was amplified by PCR using Taq DNA polymerase (Invitrogen) and two reporter sequence-specific primers. The PCR products were fluorescently labeled by primer extension with 6-arboxyfluorescein (6-FAM) 5'-labeled reporter sequence-specific primer (2 min at 95 C, 20 s at 68 C and 10 min at 72 C) and these products were digested with 5U of HpaI (New England Biolabs) for 2h at 37 C. […] The raw capillary electrophoresis data was processed using Attagraph software (Attagene).

| SMILES | AC50 | outcome |
| --- | --- | --- |
| O=[P+](Oc1ccccc1)Oc1ccccc1 | active: 0.0995 µM |  |
| O=[As]c1ccccc1 (stereo unspecified) | active: 0.23 µM |  |
| CCCCOP(OCCCC)OCCCC |  | inactive |
| CC(C)OP(=S)(OC(C)C)SCCNS(=O)(=O)c1ccccc1 |  | inactive |
| O=P(Cl)(Oc1ccccc1)Oc1ccccc1 |  | inactive |
| Cc1cc([N+](=O)[O-])cc([N+](=O)[O-])c1O | active: 122 µM |  |
| O=C1C2CC=CCC2C(=O)N1SC(Cl)(Cl)C(Cl)Cl (stereo unspecified) |  | inactive |
| CCCCC(CC)CO[P+](=O)OCC(CC)CCCC (stereo unspecified) |  | inactive |
| O=C(Cl)OCCOC(=O)Cl |  | inactive |
| O=[N+]([O-])c1ccc([N+](=O)[O-])cc1 | active: 35.9 µM |  |
| O=C(Cl)Oc1ccccc1 |  | inactive |
| N#CSc1ccc([N+](=O)[O-])cc1[N+](=O)[O-] | active: 2.07 µM |  |
| O=[p+]1oc2ccccc2c2ccccc21 (stereo unspecified) |  | inactive |
| CC(C)CCCCCCCOP(OCCCCCCCC(C)C)Oc1ccccc1 |  | inactive |
| CN(C(=O)Cc1cccc2occc12)[C@H]1CC[C@@]2(CCCO2)C[C@@H]1N1CCCC1 |  | inactive |
| CCCCO[P+](=O)OCCCC |  | inactive |
